Our source for the Ki values is ChEMBL document CHEMBL3232829, “Synthesis and multitarget biological profiling of a novel family of rhein derivatives as disease-modifying anti-Alzheimer agents” (J Med Chem, 2014).

Amino acid sequences for entries named in this document (tags omitted). A change or cut given only in a name is not applied to a line headed by its entry.
UniProt P22303: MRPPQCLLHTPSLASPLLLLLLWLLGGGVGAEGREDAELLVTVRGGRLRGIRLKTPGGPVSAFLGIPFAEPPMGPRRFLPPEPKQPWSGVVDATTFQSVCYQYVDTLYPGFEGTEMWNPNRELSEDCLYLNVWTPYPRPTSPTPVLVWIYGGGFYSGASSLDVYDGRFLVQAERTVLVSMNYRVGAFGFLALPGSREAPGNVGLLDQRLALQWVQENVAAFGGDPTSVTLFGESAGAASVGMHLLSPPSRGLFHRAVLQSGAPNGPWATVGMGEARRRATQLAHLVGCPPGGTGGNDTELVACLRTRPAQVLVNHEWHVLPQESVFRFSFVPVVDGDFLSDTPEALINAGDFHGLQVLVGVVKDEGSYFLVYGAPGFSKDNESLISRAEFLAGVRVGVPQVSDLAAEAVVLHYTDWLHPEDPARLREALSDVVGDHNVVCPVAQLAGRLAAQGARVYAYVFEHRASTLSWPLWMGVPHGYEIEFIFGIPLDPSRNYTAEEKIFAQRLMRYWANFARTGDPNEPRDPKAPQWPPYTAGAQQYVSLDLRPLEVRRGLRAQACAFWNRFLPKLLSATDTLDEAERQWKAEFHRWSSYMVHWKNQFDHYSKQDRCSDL

In experiment [1] the target is T1, Acetylcholinesterase (Homo sapiens, UniProt P22303). The experiment in a line: Inhibition of human recombinant AChE using acetylthiocholine iodide as substrate assessed as dissociation constant for enzyme-substrate-inhibitor complex by Lineweaver-Burk plot analysis.
Experiment [2] addresses T1, Acetylcholinesterase. The experiment in a line: Inhibition of human recombinant AChE using acetylthiocholine iodide as substrate assessed as dissociation constant for enzyme-inhibitor complex by Lineweaver-Burk plot analysis.

Regarding `CC1=C[C@@H]2Cc3nc4cc(Cl)ccc4c(NCCCCCCCCCNC(=O)c4cc(O)c5c(c4)C(=O)c4cccc(O)c4C5=O)c3[C@H](C1)C2`, the Ki on Acetylcholinesterase [1] was determined as 3.41 nM; on Acetylcholinesterase [2], 2.65 nM.
